Bioassay records from PubChem BioAssay.
An excerpt weighted towards active compounds, which were near 0.43% of everything screened.
Rango complex inh: Rango-importin beta binding inhibition. Q14974. Rango CFP/YFP FRET sensor + importin beta, 45 min. AID 540263. Potency, µM (doses to about 92.2 µM), inactives show at the top dose inhibition of complex formation. hit rate 0.031% among 340,000; calls by dose curve;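 further: potency means the concentration at half of the fitted maximal effect; 0% = DMSO wells and 100% = buffer wells lacking importin beta; nearly all actives have a fitted effect of over 15% in size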
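FRET biosensor Rango (snurportin 1 IBB between N-terminal EYFP and C-terminal Cerulean), 50 nM in PBS/1 mM DTT/0.02% Tween-20/0.1% BSA, preincubated 5 min RT with compound; 0.125 microM importin beta added, 45 min RT, CFP/YFP FRET ratio read.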
MmCpn inh: M. maripaludis TRiC chaperonin inhibition; purified Mm-Cpn ATPase, ADP Transcreener TR-FRET; Potency, µM (doses to about 76.9 µM), inactives show at the top dose activity, negative = inhibition, usual class: inhibitors; hit rate 0.031% among 330,000; AID 504842; further: potency means the concentration at half of the fitted maximal effect; on the % scale 0 is the no-effect control and ±100 the full control effect; nearly all actives have a fitted effect of over 80% in size
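ATP (10 uM final) was added to archaeal chaperonin (25 nM final) after 10 min exposure to test compound at 37°C; after 30 min further incubation, ADP was detected by competitive TR-FRET.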
B2AR arrestin: recruits beta-arrestin to the human beta2-adrenergic receptor; P07550; Potency, µM (doses to about 46.1 µM), inactives show at the top dose activation, actives largely listed as activators; beta-arrestin recruitment to beta2AR, cell-based reporter; hit rate 0.02% among 330,000;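 further: potency means the concentration at half of the fitted maximal effect; 0% = DMSO controls and full agonism = EC100 isoproterenol or metaproterenol; nearly all actives have a fitted effect of over 65% in size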
CCT chaperon mod: cytosolic chaperonin activity modulation; purified chaperonin ATPase assay, HTRF ADP detection, 30 min; activity change, % (concentration not given with the values), hits read low; hit rate 0.3% among 360,000; AID 651819; in the data active means activity change below about -30%; further: on the % scale 0 is the no-effect control and ±100 the full control effect
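TRiC at 40 or 20 nM final (batch-dependent) in 30 mM Tris pH 7.4, 100 mM KCl, 5 mM MgCl2, 1 mM DTT, with compound at single 76 uM and 10 uM ATP, 30 min at 37 deg C. ADP detected by HTRF Transcreener, 665/615 ratio.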
Rango release inh: inhibition of RanGTP-driven Rango-importin beta dissociation; O95149+P62826; Potency, µM (top dose mostly 46.1 µM), inactives show at the highest dose activity change, negative = inhibition; Biochemical FRET Rango-importin beta, RanGTP-induced dissociation; hit rate 0.071% among 340,000; calls by dose curve; further: potency means the concentration at half of the fitted maximal effect; % of control where 0% means no effect; nearly all actives have a fitted effect of over 45% in size
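Rango/importin beta premix (0.1/0.25 uM final), PBS + 1 mM DTT + 0.02% Tween-20 + 0.1% BSA; cpd 5 min RT; FRET pre-read; + RanGTP-RCC1 (0.6 uM Ran, 2 mM GTP, 0.2 uM RCC1); 45 min RT; FRET post-read, ex 430, em 486/530 nm.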
* marks the source's active call; other numbers are inactive results; ? = inconclusive; . = no result. Unless noted, the call rests on the fitted dose curve; in most records, active means well fitted curve in the direction sought with a large enough effect; inconclusive means small, poorly fitted or top-dose-only effect, or another doubt; inactive means no such curve, though single readings can be large; an effect the other way counts as inactive or inconclusive.

SMILES | Rango complex inh | MmCpn inh | B2AR arrestin | CCT chaperon mod | Rango release inh
COc1cccc(/C=N/NC(=S)Nc2cccc(S(=O)(=O)N(C)C)c2)c1 | 0% | -24% | 18µM* | 0 | 28%
O=c1c2ccccc2c(C=NCCCN2CCOCC2)c(O)n1Cc1ccc2c(c1)OCO2 | ? | 3% | 0% | -38* | -9%
O=c1c2ccccc2c(C=NCCCN2CCOCC2)c(O)n1Cc1ccccc1 | -1% | 0% | 0% | 2 | -19%
COc1ccc(NS(=O)(=O)c2ccc(-c3cnc(C4CC4)o3)cc2)cc1OC | 0% | 1% | -1% | -66* | -18%
COc1ccccc1NS(=O)(=O)c1ccc(-c2cnc(C3CC3)o2)cc1 | 5% | 1% | -1% | -77* | 30%
CCOc1ccccc1NS(=O)(=O)c1ccc(-c2cnc(C3CC3)o2)cc1 | 4% | 5% | 0% | -1 | 6%
CCSc1nnc(NC(=O)CSc2nncc(=O)n2N)s1 | 2% | -1% | 0% | -2 | -1%
CCOC(=O)CC1(NC(=O)c2cc(COc3cccc(OC)c3)on2)CCCCC1 | 6% | 0% | 0% | -1 | 5%
CSc1nc2nc(C)c(CCC(=O)OCC(=O)Nc3ccc(F)cc3)c(C)n2n1 | -3% | -2% | 0% | 1 | 6%
COc1ccc(-c2cc(C(=O)Nc3cc(OC)c(OC)c(OC)c3)no2)cc1 | 4% | 0% | -1% | -34* | -6%
Cc1onc(-c2ccccc2)c1C(=O)N1CCN(c2ncccc2C(F)(F)F)CC1 | 2% | -3% | -1% | -2 | 12%
CNC(=S)N1N=C(c2ccc(C)cc2)CC1c1ccc(N(C)C)cc1 (centres undefined) | ? | 25µM* | 0% | 0 | ?

Arranged by the number under CCT chaperon mod (high to low): 3 from the list above
smiles | CCT chaperon mod
CCOc1ccccc1NS(=O)(=O)c1ccc(-c2cnc(C3CC3)o2)cc1 | -1
O=c1c2ccccc2c(C=NCCCN2CCOCC2)c(O)n1Cc1ccc2c(c1)OCO2 | -38*
COc1ccc(NS(=O)(=O)c2ccc(-c3cnc(C4CC4)o3)cc2)cc1OC | -66*

Later entries
SMILES | Rango complex inh | MmCpn inh | B2AR arrestin | CCT chaperon mod | Rango release inh
CC(C)C(C)(C#N)NC(=O)CSc1nc(C2CCCCC2)n(-c2ccccc2)n1 (centres undefined) | 6% | 2% | 0% | -33* | 11%
NC(=O)NC(=O)CSc1nc(C2CCCCC2)n(-c2ccccc2)n1 | -6% | 3% | -2% | -3 | -17%
CC(=O)Nc1ccc(N(CC(O)Cn2c3ccccc3c3ccccc32)S(=O)(=O)c2ccc(C)cc2)cc1 (centres undefined) | 2% | -17% | -1% | -46* | 6%
Cc1ccc(N(CC(O)Cn2c3ccccc3c3ccccc32)S(C)(=O)=O)cc1 (centres undefined) | 1% | 2% | 0% | -4 | -15%
CCOC(=O)c1c(NC(C)=O)sc2c1CCC(C=O)=C2Sc1ccccc1 | ? | 1% | 0% | -2 | 15µM*
CCOC(=O)c1c(NC(C)=O)sc2c1CCN(Cc1ccccc1)C2 | ? | 1% | 0% | -1 | ?
NC(=S)c1cc2cc(Cl)ccc2oc1=O | 26µM* | -2% | -1% | 1 | 10%
Brc1ccc(-c2nc3ccccc3s2)s1 | 0% | 40µM* | 0% | 0 | -8%
O=c1c(Cl)c(NCc2ccc(F)cc2)cnn1C12CC3CC(CC(C3)C1)C2 | 2% | -1% | -1% | -31* | 19%
Oc1ccc2ccccc2c1C=Nc1ccc(N2CCOCC2)cc1 | 37µM* | -4% | 0% | 0 | ?
CC(C)n1cc(/C=C2\NC(=O)N(c3cccc(Cl)c3)C2=O)c2ccccc21 | ? | 0% | 0% | -2 | ?
O=C(O)Cn1cc(/C=C2/NC(=O)N(c3ccc(Cl)cc3)C2=O)c2ccccc21 | ? | -3% | 0% | -2 | 10µM*
CCc1ccc(NC(=O)C2CCN(S(=O)(=O)c3cnc[nH]3)CC2)cc1 | 2% | 2% | 0% | 0 | -17%
CCc1ccc(NC(=O)C2CCCN(S(=O)(=O)c3cnc[nH]3)C2)cc1 (centres undefined) | 1% | -3% | 0% | -74* | 12%
O=C(NCc1ccncc1)C12CC3CC(CC(C3)C1)C2 | 0% | 1% | 0% | -84* | 1%
O=C(NCc1ccccc1)C12CC3CC(CC(C3)C1)C2 | 4% | 3% | 9% | -1 | -13%
Cc1ccc(C)c(C(=O)C(C)Sc2nc3nn(-c4ccccc4)c(=O)c-3c3n2CCCCC3)c1 (centres undefined) | 1% | 0% | 0% | -2 | 10%
Cc1oc(-c2cccc(Br)c2)[n+]([O-])c1C | 1% | 1% | 0% | 1 | -3%
Nc1ccc2c(c1)C(=O)c1ccc(N)cc1-2 | 3% | . | . | -62* | -3%
Cc1cc(OCC(=O)Nc2nnc(C3CC3)s2)ccc1[N+](=O)[O-] | -1% | 1% | 0% | 1 | 0%
Cc1ccccc1C(=O)Nc1nc(=S)ss1 | 1% | -15% | 0% | -57* | -11%
N#Cc1ccc(-c2ccccc2)nc1SCC(=O)c1cc2ccccc2oc1=O | ? | -8% | 0% | 1 | 16µM*
Fc1cccc(CNc2ncnc3ccc(-c4ccoc4)cc23)c1 | . | 1% | -1% | . | .
CC1(C(=O)NCCc2ccccc2)Cc2c(-c3ccccc3)ccnc2O1 (centres undefined) | . | . | . | 0 | .
Cc1ccccc1OCCNc1ccc(C(F)(F)F)cc1[N+](=O)[O-] | 0% | -3% | -1% | -53* | -3%
CC1c2[nH]c3ccccc3c2C[C@H]2C(=O)N(CCCN(C)C)CC(=O)N12 (some centres undefined) | 1% | -2% | -1% | -3 | 0%
CCCCSc1cnn(-c2ccccc2)c(=O)c1SCCCC | 10% | 40µM* | 0% | -3 | -5%
Cc1ccc(-c2csc(NC(=O)C3CCN(S(=O)(=O)c4cccs4)CC3)n2)cc1 | -1% | -7% | 0% | -1 | -2%
O=C(Nc1nc(-c2ccc3ccccc3c2)cs1)C1CCN(S(=O)(=O)c2cccs2)CC1 | ? | -7% | -1% | -51* | -5%
O=C(NCc1nnc(SCc2ccccc2)n1-c1ccccc1)C12CC3CC(CC(C3)C1)C2 | -1% | 0% | 0% | 2 | 18%
O=C(NCc1nnc(SCc2ccccc2)n1-c1ccc(F)cc1)C12CC3CC(CC(C3)C1)C2 | -1% | 0% | 0% | -68* | -3%
CC(NC(=O)COC(=O)c1cn(-c2ccccc2)nc1-c1cccs1)c1ccccc1 (centres undefined) | 0% | 50µM* | 0% | -1 | 2%
O=C(Nc1ccncc1)c1cn(-c2ccccc2)nc1-c1cccs1 | 1% | -22% | -1% | -1 | 14%
O=C(Nc1ccccc1F)c1ccc(O)c2ncccc12 | . | -1% | 11% | . | .
Cc1ccc(S(=O)(=O)NCC(c2cccnc2)N2CCc3ccccc32)cc1 (centres undefined) | -3% | 0% | 0% | -49* | -6%
CC1CCCCC1NC(=S)NC(=O)c1ccccc1Cl (centres undefined) | 1% | -1% | 0% | 1 | -12%
CC1CCCCC1NC(=S)NC(=O)c1sc2ccccc2c1Cl (centres undefined) | ? | ? | 0% | -47* | -5%

Arranged by formula weight (ascending): 3 of the compounds above
SMILES | Rango complex inh | MmCpn inh | B2AR arrestin | CCT chaperon mod | Rango release inh
CC1CCCCC1NC(=S)NC(=O)c1ccccc1Cl (centres undefined) | 1% | -1% | 0% | 1 | -12%
CC1CCCCC1NC(=S)NC(=O)c1sc2ccccc2c1Cl (centres undefined) | ? | ? | 0% | -47* | -5%
O=C(NCc1nnc(SCc2ccccc2)n1-c1ccc(F)cc1)C12CC3CC(CC(C3)C1)C2 | -1% | 0% | 0% | -68* | -3%
